In this data set the test system is human erythrocytes. Briefly: In vitro toxicity (haemolysis of human erythrocytes). The class given is cell-based. The settings on record: 0.5 h. As to the method:
Toxicity of compounds in vitro against animal cells was determined using standard for polyene macrolides procedure, by the determination of the degree of haemolysis of human erythrocytes. Human erythrocytes isolated from fresh, citrated human blood were washed twice with cold saline. The cells were diluted 250 times with saline and equilibrated for 30 minutes at 37° C. Samples of erythrocytes were incubated with various concentrations of antibiotics (the base solution in DMF) for 30 minutes at 37° C. After centrifugation the lysis of erythrocytes was assessed by determination of the haemoglobin released to the solution. Optical density of the supernatant was measured at […]. The results were expressed by EH50 value, as concentration of antibiotic at which 50% of hemolysis occurred. The values of EH50 were read from a curve relating the degree of hemolysis with antibiotic dose.

The values below come from patent US5942495A, “Antibiotics” (BTG International Limited, priority 1997, dated 1999).

For the substance “N-methyl-N-D-fructosylamphotericin B methyl ester [Example IX]”, the “EH50 (concentration at which 50% of hemolysis occurred)” value is reported as “above 200 μg/ml”.
